From patent US9902722B2, “Biaryl kinase inhibitors” (BRISTOL-MYERS SQUIBB COMPANY, priority 2014, dated 2018)

By UniProt entry, the sequences of proteins in these tests, tags left out. Where a name states a change or a piece, a line headed by the entry shows the natural chain unless it says otherwise.
UniProt Q2M2I8: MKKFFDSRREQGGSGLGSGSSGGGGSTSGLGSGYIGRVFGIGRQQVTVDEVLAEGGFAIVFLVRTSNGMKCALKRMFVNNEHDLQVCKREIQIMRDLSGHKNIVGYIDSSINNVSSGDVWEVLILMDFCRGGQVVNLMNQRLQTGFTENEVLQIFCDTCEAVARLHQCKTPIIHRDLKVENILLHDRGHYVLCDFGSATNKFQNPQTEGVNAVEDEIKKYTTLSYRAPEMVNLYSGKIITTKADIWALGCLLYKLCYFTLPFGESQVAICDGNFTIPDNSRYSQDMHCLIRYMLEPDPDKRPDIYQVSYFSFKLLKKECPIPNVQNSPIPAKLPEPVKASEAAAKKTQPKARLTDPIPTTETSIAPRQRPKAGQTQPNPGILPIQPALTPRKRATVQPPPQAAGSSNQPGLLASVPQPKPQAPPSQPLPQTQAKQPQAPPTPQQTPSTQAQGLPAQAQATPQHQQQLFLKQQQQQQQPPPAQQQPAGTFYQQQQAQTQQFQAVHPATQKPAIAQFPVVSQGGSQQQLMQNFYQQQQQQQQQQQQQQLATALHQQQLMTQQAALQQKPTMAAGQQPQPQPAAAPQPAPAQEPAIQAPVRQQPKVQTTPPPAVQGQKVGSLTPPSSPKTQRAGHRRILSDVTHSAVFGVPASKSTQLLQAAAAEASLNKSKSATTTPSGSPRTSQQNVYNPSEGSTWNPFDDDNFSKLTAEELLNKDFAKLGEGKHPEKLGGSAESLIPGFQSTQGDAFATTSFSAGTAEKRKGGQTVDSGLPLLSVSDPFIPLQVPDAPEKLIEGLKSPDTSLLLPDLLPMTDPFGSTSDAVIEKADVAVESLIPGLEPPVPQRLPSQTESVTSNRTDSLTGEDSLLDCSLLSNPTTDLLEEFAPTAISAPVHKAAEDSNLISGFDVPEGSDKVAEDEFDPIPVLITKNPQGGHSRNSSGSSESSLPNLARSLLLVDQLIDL

Biological target: GST-Xa-hAAK1 (Homo sapiens (Human), UniProt Q2M2I8)
Assay: AAK1 Kinase Assay;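 further: each compound tested across an eleven-point concentration series, with IC50 obtained through non-linear regression fitting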
Format: biochemical
Conditions: bacterially expressed GST-Xa-hAAK1 3.5 nM; ATP 22 μM; peptide substrate 1.5 μM; 3 hours at room temperature; Caliper LabChip 3000
Method: The assays were performed in U-bottom 384-well plates. […] The reactions were initiated by the combination of bacterially expressed, GST-Xa-hAAK1 with substrates and test compounds. The reactions were incubated at room temperature for 3 hours and terminated by adding 60 μl of 35 mM EDTA buffer to each sample. […] Compounds were dissolved at 10 mM in dimethylsulfoxide (DMSO) and evaluated at eleven concentrations. IC50 values were derived by non-linear regression analysis.

Row | SMILES | IC50
1 | CC(C)C[C@](C)(N)COc1ncc(-c2ccnc3ccccc23)cc1Cl [Example 78, (S)-1-((3-chloro-5-(quinolin-4-yl)pyridin-2-yl)oxy)-2,4-dimethylpentan-2-amine] | 0.49 nM
2 | Cc1cc(-c2ccnc3ccc(F)cc23)ncc1OC[C@@](C)(N)CC(C)C [Example 230, (S)-1-((6-(6-fluoroquinolin-4-yl)-4-methylpyridin-3-yl)oxy)-2,4-dimethylpentan-2-amine] | 1.1 nM
3 | Cc1cc(-c2ccnc3cc(Cl)ccc23)ncc1OC[C@@](C)(N)CC(C)C [Example 231, (S)-1-((6-(7-chloroquinolin-4-yl)-4-methylpyridin-3-yl)oxy)-2,4-dimethylpentan-2-amine] | 0.47 nM
4 | Cc1nccc(-c2cc(Cl)c(OC[C@@](C)(N)CC(C)C)cn2)c1C [Example 243, (S)-1-((4-chloro-2′,3′-dimethyl-[2,4′-bipyridin]-5-yl)oxy)-2,4-dimethylpentan-2-amine] | 1070 nM
